Permeability data for macrocyclic peptides

Source: CycPeptMPDB (Li et al. 2023), which took these values from Townsend et al. 2020, doi:10.26434/chemrxiv.13335941.v1.

PAMPA is the parallel artificial membrane permeability assay, which has no cells and reads passive diffusion.
Values are log10 P with P in cm/s, so -5 is more permeable than -7.

compound | PAMPA (log10 cm/s)
C[C@@H]1C(=O)N(Cc2ccccc2)CC(=O)N(Cc2ccccc2)CC(=O)N2CCC[C@@H]2C(=O)N(Cc2ccccc2)CC(=O)N[C@@H](Cc2ccccc2)C(=O)N1C | -6.28
CC(C)C[C@@H]1C(=O)N[C@@H](Cc2ccccc2)CC(=O)N2CCC[C@@H]2C(=O)N(Cc2ccccc2)CC(=O)N[C@@H](Cc2ccccc2)C(=O)N2CCC[C@@H]2C(=O)N[C@@H](Cc2ccccc2)CC(=O)N1C | -5.79
CCCN1CC(=O)N(C)[C@@H](CC(C)C)C(=O)N[C@@H](Cc2ccccc2)CC(=O)N2CCC[C@@H]2C(=O)N(C)[C@H](CC(C)C)C(=O)N[C@@H](Cc2ccccc2)C1=O | -5.38
CCCN1CC(=O)N(Cc2ccccc2)CC(=O)N(Cc2ccccc2)CC(=O)N2CCC[C@@H]2C(=O)N[C@H](CC(C)C)C(=O)N[C@@H](Cc2ccccc2)C(=O)N2CCC[C@@H]2C1=O | -5.96
CC(C)C[C@H]1NC(=O)[C@@H](C)NC(=O)[C@H](Cc2ccccc2)NC(=O)CN(Cc2ccccc2)C(=O)[C@@H]2CCCN2C(=O)C[C@H](Cc2ccccc2)NC1=O | -6.56
CCCN1CC(=O)N(Cc2ccccc2)CC(=O)N[C@@H](Cc2ccccc2)CC(=O)N2CCC[C@H]2C(=O)N[C@H](CC(C)C)C(=O)N[C@@H](Cc2ccccc2)C(=O)N2CCC[C@H]2C1=O | -5.94
CC(C)C[C@@H]1NC(=O)[C@H]2CCCN2C(=O)C[C@H](Cc2ccccc2)NC(=O)CN(Cc2ccccc2)C(=O)C[C@H](Cc2ccccc2)NC(=O)[C@H](Cc2ccccc2)NC1=O | -6.41
CCCN1CC(=O)N(C)[C@@H](CC(C)C)C(=O)N[C@@H](CC(C)C)C(=O)N2CCC[C@@H]2C(=O)N(Cc2ccccc2)CC(=O)N[C@@H](Cc2ccccc2)C1=O | -5.25
CC(C)C[C@@H]1NC(=O)[C@@H](CC(C)C)N(C)C(=O)C[C@H](Cc2ccccc2)NC(=O)[C@@H]2CCCN2C(=O)[C@H](Cc2ccccc2)NC(=O)CN(Cc2ccccc2)C(=O)[C@H]2CCCN2C1=O | -5.76
C[C@H]1C(=O)N(Cc2ccccc2)CC(=O)N(Cc2ccccc2)CC(=O)N2CCC[C@H]2C(=O)N(Cc2ccccc2)CC(=O)N[C@@H](Cc2ccccc2)C(=O)N1C | -5.71
CC(C)C[C@@H]1NC(=O)CN(Cc2ccccc2)C(=O)[C@H](C)NC(=O)[C@@H]2CCCN2C(=O)[C@H](Cc2ccccc2)NC(=O)[C@@H](CC(C)C)N(C)C(=O)[C@H]2CCCN2C1=O | -6.13
CC(C)C[C@H]1C(=O)N(Cc2ccccc2)CC(=O)N2CCC[C@H]2C(=O)N(Cc2ccccc2)CC(=O)N[C@@H](Cc2ccccc2)C(=O)N[C@@H](C)C(=O)N1C | -5.50
CC(C)C[C@@H]1C(=O)N[C@@H](Cc2ccccc2)CC(=O)N2CCC[C@H]2C(=O)N(Cc2ccccc2)CC(=O)N[C@@H](Cc2ccccc2)C(=O)N(C)[C@H](C)C(=O)N1C | -5.54
CC(C)C[C@@H]1C(=O)N(Cc2ccccc2)CC(=O)N2CCC[C@H]2C(=O)N(Cc2ccccc2)CC(=O)N[C@@H](Cc2ccccc2)C(=O)N2CCC[C@@H]2C(=O)N[C@H](C)C(=O)N1C | -6.23
CCCN1CC(=O)N(Cc2ccccc2)CC(=O)N[C@H](CC(C)C)C(=O)N2CCC[C@@H]2C(=O)N[C@H](CC(C)C)C(=O)N[C@@H](Cc2ccccc2)C1=O | -5.85

The first 2 entries again:

compound	PAMPA (log10 cm/s)
C[C@@H]1C(=O)N(Cc2ccccc2)CC(=O)N(Cc2ccccc2)CC(=O)N2CCC[C@@H]2C(=O)N(Cc2ccccc2)CC(=O)N[C@@H](Cc2ccccc2)C(=O)N1C	-6.28
CC(C)C[C@@H]1C(=O)N[C@@H](Cc2ccccc2)CC(=O)N2CCC[C@@H]2C(=O)N(Cc2ccccc2)CC(=O)N[C@@H](Cc2ccccc2)C(=O)N2CCC[C@@H]2C(=O)N[C@@H](Cc2ccccc2)CC(=O)N1C	-5.79

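Lipid, pH, incubation time, direction and concentration are not recorded in the data file. The list need not hold all peptides of the study. Entries at the database's floor value (log10 P of -10) are not listed.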